Test results published in US20230346820A1, “METHODS AND COMPOSITIONS FOR THE TREATMENT OF SARS-COV-2” (priority 2020, published 2023).

Experiments:
in vitro [1] = conditions: human
in vitro [2] = conditions: human; remark: listed apart in the source

Question: For `COc1ccc(C[C@H]2NC[C@H](O)[C@H]2OC(C)=O)cc1` [ANISOMYCIN], which CC50 at 48 h (in vitro [1]) is on record?
Answer: Its CC50 at 48 h is 5.98 µM.

Question: What about the CC50 (in vitro [2]) of the same molecule?
Answer: Its CC50 is 0.189 µM.
